The values that follow come from paper PMC5866846 (Archives of Toxicology, 2017).

The structures appear in SMILES notation.

One series relates to CYP1A2. In words: CYP1A2 activity in upcyte hepatocytes after treatment (probe substrate cocktail). Conditions: rifampicin 30 µM, 72 h, both cell strains.
A further series deals with CYP2B6. In words: CYP2B6 activity in upcyte hepatocytes after treatment (probe substrate cocktail). Conditions: rifampicin 30 µM, 72 h, both cell strains.

As to `CO[C@H]1/C=C/O[C@@]2(C)Oc3c(C)c(O)c4c(O)c(c(/C=N/N5CCN(C)CC5)c(O)c4c3C2=O)NC(=O)/C(C)=C\C=C\[C@H](C)[C@H](O)[C@@H](C)[C@@H](O)[C@@H](C)[C@H](OC(C)=O)[C@@H]1C` [Rifa, rifampicin, reference compound], the “induction of CYP1A2 activity” value with CYP1A2 was “not induced”. The “induction of CYP2B6 activity” value in the series with CYP2B6 is “not induced”.
